Test results published in PMC5415086 (Nature, 2010).

Tested on: serum TNF
Details: I-BET 1 hour before LPS; samples 2 hours after LPS

## CCNC(=O)C[C@@H]1N=C(c2ccc(Cl)cc2)c2cc(OC)ccc2-n2c(C)nnc21 [I-BET]
  serum TNF levels: unaltered
